Results from patent publication US20240116877A1, “KIT KINASE INHIBITORS AND METHODS OF USE THEREOF” (Deciphera Pharmaceuticals, LLC, priority 2021, published 2024).
Like-named read-outs stand apart in the source and are kept apart here.

Sequences of proteins named here, by UniProt entry; tags and fusion partners are left off. A line that says so, or that is headed by a name, gives the form on record, which may keep a tag or linker. Residues count along the entry.
UniProt P10721, 544-976 with tags or gaps limits assumed: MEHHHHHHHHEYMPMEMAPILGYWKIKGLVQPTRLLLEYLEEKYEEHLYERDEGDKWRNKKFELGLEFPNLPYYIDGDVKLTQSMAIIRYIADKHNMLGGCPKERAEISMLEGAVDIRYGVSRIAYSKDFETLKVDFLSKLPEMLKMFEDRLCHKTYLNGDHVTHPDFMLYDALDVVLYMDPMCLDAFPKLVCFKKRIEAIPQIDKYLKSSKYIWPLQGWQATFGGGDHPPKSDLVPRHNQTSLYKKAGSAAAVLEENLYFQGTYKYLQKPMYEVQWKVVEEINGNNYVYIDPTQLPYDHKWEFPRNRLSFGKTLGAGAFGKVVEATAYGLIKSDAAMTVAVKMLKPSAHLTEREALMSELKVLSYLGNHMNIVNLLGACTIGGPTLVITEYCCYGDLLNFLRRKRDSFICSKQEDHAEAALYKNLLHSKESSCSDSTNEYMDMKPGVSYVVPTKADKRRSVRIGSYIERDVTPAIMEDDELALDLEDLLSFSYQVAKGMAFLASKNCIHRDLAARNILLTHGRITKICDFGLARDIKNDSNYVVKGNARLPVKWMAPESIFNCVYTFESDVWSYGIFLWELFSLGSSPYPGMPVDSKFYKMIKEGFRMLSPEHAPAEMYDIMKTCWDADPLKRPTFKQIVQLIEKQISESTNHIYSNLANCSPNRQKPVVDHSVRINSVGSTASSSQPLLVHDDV

Legend:
Ba/F3 KIT mutant cells = assay: Ba/F3 mutant KIT Cell Proliferation Assays (resazurin)
Experimental: Ba/F3 KIT Mutant Cell Line Transduction and Expansion
Several different KIT cDNA encoding various primary and secondary mutations were cloned into a pLV(Exp]-CMV>(cDNA):IRES:puro vector. These vectors were constructed and packaged by VectorBuilder.
Exponentially grown Ba/F3 cells (1×10^6 cells in 1 ml medium) were infected with 60 μl of viral suspension in a 6-well plate in the presence of mIL-3 (10 ng/ml) and polybrene (7.5 μg/ml) (Vector Builder) and incubated for 16 h. After 16 h, the cells were centrifuged, and viral supernatant was discarded. The cells were then re-suspended in fresh medium and allowed to recover for another day. After 72 h post infection, the cells were seeded with complete medium with mIL-3 and with 1 μg/ml puromycin added to medium for selection. After 48 h, cells without viral infection die, whereas successfully transduced cells were collected and changed to fresh medium with 5 ng/ml of IL-3. After a week or two with gradual withdrawal of mIL3 the cells that can continue to proliferate in the absence of mIL3 were exponentially expanded and were frozen down for banking.
Ba/F3 mutant KIT Cell Proliferation Assays
(§1) A serial dilution of test compound was dispensed into a 384-well black clear bottom plate (Corning, Corning, NY). Six hundred and twenty-five cells were added per well in 50 μL complete growth medium. Plates were incubated for 68 h at 37° C., 5% CO2, 95% humidity. At the end of the incubation period 10 μL of a 440 μM solution of resazurin (Sigma, St. Louis, MO) in PBS was added to each well and incubated for an additional 5 h at 37° C., 5% CO2, 95% humidity. Plates were read on a Synergy2 reader (Biotek, Winooski, VT) using an excitation of 540 nm and an emission of 600 nm. Data was analyzed using Prism software (Graphpad, San Diego, CA) to calculate IC50 values.

GIST 430 cells = assay: GIST 430 Cell Proliferation Assay (resazurin); settings: read-out: GIST430 IC50
Experimental: GIST 430 Cell Proliferation Assay
as §1, with “a 96-well” for “a 384-well”, “NY). Five thousand” for “NY). Six hundred and twenty-five”, “in 200” for “in 50”, “for 115” for “for 68”, “at 37 degrees Celsius,” for “at 37° C.,”, “period 40” for “period 10”

c-KIT kinase (uKIT) = c-KIT kinase (uKIT) (Homo sapiens (Human), UniProt P10721); assay: Biochemical Assay for uKIT (coupled pyruvate kinase/lactate dehydrogenase assay); settings: read-out: uKIT IC50; Inhibition of biochemical activity of uKIT kinase; 1 mM ATP
[1] = read-out: AYdup-D816G IC50, Ba/F3 KIT AYdup-D816G mutant cell proliferation
[2] = read-out: AYdup-V654A IC50, Ba/F3 KIT AYdup-V654A mutant cell proliferation
[3] = read-out: exon11del-V654A IC50, Ba/F3 KIT exon11del-V654A mutant cell proliferation
[4] = read-out: exon11del-Y823D IC50, Ba/F3 KIT exon11del-Y823D mutant cell proliferation

Row | IC50 (Ba/F3 KIT mutant cells; read-out: AYdup IC50, Ba/F3 KIT AYdup mutant cell proliferation) | IC50 (Ba/F3 KIT mutant cells; [1]) | IC50 (Ba/F3 KIT mutant cells; [2]) | IC50 (Ba/F3 KIT mutant cells; [3]) | IC50 (Ba/F3 KIT mutant cells; [4]) | IC50 (c-KIT kinase (uKIT)) | SMILES | IC50 (GIST 430 cells)
1 | < 10 nM | < 10 nM | 10 to 100 nM | < 10 nM | 10 to 100 nM | 10 to 100 nM | O=C(NCCC1CCOCC1)Nc1ccc(Nc2ncnc3cc(OCCN4CCOCC4)cc(F)c23)cc1 | < 10 nM
2 |  | 100 to 1000 nM | 100 to 1000 nM | 100 to 1000 nM | 100 to 1000 nM | 10 to 100 nM | COCCOc1cc(F)c2c(Nc3ccc(NC(=O)NCCC(C)(C)C)nc3)ncnc2c1 | 100 to 1000 nM
3 |  | < 10 nM | < 10 nM | < 10 nM | 10 to 100 nM | < 10 nM | COCCOc1cc(F)c2c(Nc3ccc(NC(=O)NCCC4CCC4)cc3)ncnc2c1 | 10 to 100 nM
